The data set has as its target Lys-plasminogen (UniProt P00747).

“Wild type u-PA (purified two-chain enzyme)”: the Michaelis-Menten constant (Km) turned out to be 6.03 µM, the turnover number (kcat) is 70.1 s⁻¹ and the kcat/Km came out at 1.1e+07 M⁻¹ s⁻¹.
